We go through 13 compounds from patent publication US6458580B1, “Fungal sulphur source and method of using the same” (Commonwealth Scientific and Industrial Research Organisation, priority 1997, dated 2002).

For the test, the system named is Neocallimastix sp.LM1. Description: In vitro growth of Neocallimastix sp. LM1 with test compound as sole source of sulphur (decrease in media pH). As to conditions: for growth as sole sulphur source (in words): 0.5 mM, Neocallimastix sp. LM1.
The mark [1] stands for this setting: test compound 0.5 mM as sole sulphur source, five days at 39° C., […], previously tested compounds adjusted relative to […].

Read-outs that look alike come from different tables or passages of the source.

With `Cl.N[C@@H](CS)C(=O)O` [Cysteine (HCl)], the “Relative Growth (ΔpH × 100)” value under setting [1] came to 56. With `N[C@@H](CS(=O)O)C(=O)O` [Cysteine sulfinic acid], under setting [1], the “Relative Growth (ΔpH × 100)” value was determined as 1. Consider `CSSC` [Dimethyl disulfide], for which the “growth as sole sulphur source (in words)” value is reported as “better growth”. Further, the “Relative Growth (ΔpH × 100)” value under setting [1] is recorded as 96. Consider `NCCS(=O)O` [Hypotaurine], for which the “Relative Growth (ΔpH × 100)” value under setting [1] stood at 8. In the case of `O=C(O)CCS` [MPA, 3-mercaptopropanoic acid], the “growth as sole sulphur source (in words)” value is “growth comparable to sodium sulphide and somewhat better than cysteine”.

`CSCC[C@H](N)C(=O)O` [Methionine]: the “Relative Growth (ΔpH × 100)” value is reported as 39.

For the compound `N#C[S-].[K+]` [Potassium Thiocyanate], the “Relative Growth (ΔpH × 100)” value is 2. Same read-out and setting: the figure for `O=S(=O)([O-])[O-].[Na+].[Na+]` [Sodium sulfate] is 5. `O=S([O-])[O-].[Na+].[Na+]` [Sodium sulfite]: under setting [1], the “Relative Growth (ΔpH × 100)” value was determined as 4. `O=S([O-])([O-])=S.[Na+].[Na+]` [Sodium thiosulfate]: the “Relative Growth (ΔpH × 100)” value is given as 5. `CC(=N)S` [Thioacetamide]: the “Relative Growth (ΔpH × 100)” value under setting [1] is given as 6. Still for that read-out and setting: the figure for `CC(O)=S` [Thioacetic acid] is 0; for `NC(N)=S` [Thiourea] it is 2.
